## AlphaSeq binding of Ab-91 heavy chain variants to a spike HR2 peptide

The measurements come from Engelhart et al. 2022 (doi:10.1038/s41597-022-01779-4) through the FLAb antibody collection.

All variants were tested on one target, the spike HR2 peptide PDVDLGDISGINAS (SARS-CoV-2).

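The parent was found by panning a naive human phage display library on the peptide. Library AAYL51 holds single substitutions and randomly drawn double and triple substitutions in the CDRs. Affinity was read by AlphaSeq, a pooled yeast mating assay with surface-displayed partners. The frequency of each diploid, read from paired DNA barcodes, reflects how well the two displayed proteins bind. Each replicate has its own calibration line, from reference interactions of the BCL2 family. The assay was run in three technical replicates.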

Parent: Ab-91, a human scFv built as VL, a 15-residue (Gly4Ser)3 linker, VH. Only the CDRs of the heavy chain vary.
VL: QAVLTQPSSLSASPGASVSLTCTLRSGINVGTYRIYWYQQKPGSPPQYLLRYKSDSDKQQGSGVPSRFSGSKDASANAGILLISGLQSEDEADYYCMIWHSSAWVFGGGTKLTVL
VH: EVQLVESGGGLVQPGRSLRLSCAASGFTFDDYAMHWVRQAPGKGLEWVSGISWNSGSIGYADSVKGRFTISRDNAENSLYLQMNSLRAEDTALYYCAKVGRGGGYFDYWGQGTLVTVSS

The parent's heavy chain CDRs are GFTFDDYAMH, GISWNSGSIGYADSVK, VGRGGGYFDY; each variant's own CDRs replace them letter for letter.
Scale: log10 of Kd in nM, estimated from mating counts; low values are strong binders.
Where no diploid with the target was found in that replicate, the entry reads "nd": below detection, most likely a poor binder, though not proof of it.
In this assay the parent's reference entry averaged 1.86; its copy inside this library read 0.88.
As a blank, each scFv also met three strains without target: over library AAYL51, 21% of these pairings were detected, typically at 4.54 and seldom below 3.26. For each scFv, signals with the empty controls are counted beside the result, with their mean in brackets.

| # | CDR-H1 | CDR-H2 | CDR-H3 | log10 Kd (nM) by replicate | empty controls |
|---|---|---|---|---|---|
| 1 | GFTFEDYAMH | GISWNSGSIGYCMSVK | VGRGGGYFDY | nd nd nd | 0 of 9 |
| 2 | MFTFDDYQMH | GISWNSGSIGYARSVK | VGRGGGYFDY | nd nd nd | 1 of 9 (3.65) |
| 3 | GFTFDDYAMH | GISWNSGSGGYAFSVN | VGRGGGYFDY | nd nd nd | 1 of 9 (4.57) |
| 4 | GFTFDDMAMH | GISWNSGSIGYMDSVK | VGRGGGYFDV | nd nd nd | 0 of 9 |
| 5 | TFTFDDLAMH | GISWNSGSIGYADSVK | VGRGGGAFDY | nd 4.92 nd | 3 of 9 (5.58) |
| 6 | GFTFDIYPMH | GISINSGSIGYADSVK | VGRGGGYFDY | nd 3.17 nd | 1 of 9 (3.58) |
| 7 | GETFDDYAMH | GISWNSGSIGEADSVK | VGRTGGYFDY | nd nd nd | 0 of 9 |
| 8 | GFRFDDYAMH | GISWNSGSIGYADSVK | AGRGGGKFDY | 5.18 nd 4.44 | 1 of 9 (4.35) |
| 9 | GFTFDDYAMH | GISWPSGSIGYADSVK | KGRGGGYFDY | 3.68 nd 3.10 | 2 of 9 (4.34) |
| 10 | FFTFDDYAML | GISWNSGSIGYADSVK | VGRGGGYFDY | nd nd nd | 0 of 9 |
| 11 | GFTFDDYAIH | GISWNSGSIGYCDSVK | VGRGGGYFGY | 3.88 nd nd | 0 of 9 |
| 12 | GFTFDDYAMH | GISWNSGSIGYADSVK | VGRGVGYFDY | 1.13 1.11 0.72 | 4 of 9 (5.35) |
| 13 | GFTFFDYAMH | GISWNSGSIGYADSFK | VGRGGGKFDY | 2.34 3.31 2.66 | 1 of 9 (4.13) |
| 14 | GFTFDDYAMH | GIAWNSGSIGYADSFK | VLRGGGYFDY | nd nd nd | 0 of 9 |
| 15 | DFAFDDYAMH | GCSWNSGSIGYADSVK | VGRGGGYFDY | nd nd nd | 0 of 9 |
| 16 | GFTFDDYAKH | GISWRSGSIGYADSVS | VGRGGGYFDY | nd nd nd | 2 of 9 (4.66) |
| 17 | GFTFDDYTMH | GQTWNSGSIGYADSVK | VGRGGGYFDY | nd nd nd | 2 of 9 (5.11) |
| 18 | GFTFDDYQMH | GISWNSGSIGYADWVK | VGRGGGTFDY | nd nd nd | 1 of 9 (4.08) |
| 19 | GFTMDDYAMH | GISWNSGSIGPADSVK | VGRGGGPFDY | nd nd nd | 1 of 9 (3.65) |
| 20 | GFTFDDYVMH | GISWISGCIGYADSVK | VGRGGGYFDY | 4.33 6.12 nd | 7 of 9 (4.88) |
| 21 | GFTFDDYAMH | GQSWNSGSIGYADSVK | SGRGGGYFDL | 5.20 nd nd | 2 of 9 (3.83) |
| 22 | GFTFDDYAMH | GISWNSGSIGFADSVK | GGRGTGYFDY | nd 4.00 nd | 2 of 9 (3.16) |
| 23 | EFTFDDYAMH | GISWNSGSIGYADSVK | VGRGGGYFSY | nd nd nd | 1 of 9 (3.03) |
| 24 | GFTFDDYAMH | GISWNCGSIGYAISGK | VGRGGGYFDY | nd nd nd | 0 of 9 |
| 25 | GFPFDDYAMH | GISWNSPSIGYADSVK | GGRGGGYFDY | 4.36 nd nd | 2 of 9 (3.36) |
| 26 | GFTFDDYAQH | GISWNSGSIGYADSVK | TGCGGGYFDY | nd nd nd | 5 of 9 (5.30) |
| 27 | GTTFDDYAMH | GISWNSGSIGYADSVK | VGRGGGVFIY | 4.84 5.07 nd | 4 of 9 (5.10) |
| 28 | GFTFDDYAMV | GISKNSGSIGYADSVK | VGRRGGYFDY | 4.50 nd 4.29 | 5 of 9 (4.12) |
| 29 | GFTFDDYAGH | GISWNSGSIGYADSGK | VGRGGGYFDG | nd 5.58 nd | 4 of 9 (4.20) |
| 30 | GFMFDDFAMH | GISWNSASIGYADSVK | VGRGGGYFDY | 1.92 1.85 1.21 | 5 of 9 (5.05) |
| 31 | GFTFDDMAHH | GISWNSGSIGYADSVK | VGRGGGYFYY | nd 5.71 nd | 1 of 9 (4.86) |
| 32 | GFTFDDEATH | GISWNSGSIGYADSVK | VGRGGGYFDK | nd nd nd | 1 of 9 (4.03) |
| 33 | TFTFDDYAMH | GISWNSGSIGTADMVK | VGRGGGYFDY | 3.51 4.75 nd | 3 of 9 (5.15) |
| 34 | GFTPDDYAMH | GVSWNNGSIGYADSVK | VGRGGGYFDY | nd nd 3.99 | 1 of 9 (4.20) |
| 35 | GFTFDDYAFH | GISWNSGSHGYADSVK | VCRGGGYFDY | nd 5.49 nd | 5 of 9 (4.72) |
| 36 | AFTFDDYAMH | GISWNSGSIAYACSVK | VGRGGGYFDY | nd nd nd | 2 of 9 (4.69) |
| 37 | GFTFDDYAMH | GISWVSGSFGYADSVK | VGRGYGYFDY | 2.98 nd nd | 0 of 9 |
| 38 | GFTFDDYAMY | GIGWNSGSIGKADSVK | VGRGGGYFDY | 4.18 nd nd | 1 of 9 (4.93) |
| 39 | GFTHTDYAMH | GISWNSQSIGYADSVK | VGRGGGYFDY | 3.83 nd nd | 0 of 9 |
| 40 | GFTFDDYAMH | GISSNSGSIGYAASVK | VGRGGGEFDY | nd nd nd | 1 of 9 (3.97) |
| 41 | HFTFDDYAMH | GISWNSGSIGYADSVQ | VGRGGGCFDY | 5.28 5.58 5.08 | 4 of 9 (5.19) |
| 42 | GPTFDDYPMH | GISWHSGSIGYADSVK | VGRGGGYFDY | nd nd nd | 1 of 9 (5.03) |
| 43 | GFTFDDYGMH | GISWNSGSIGYADSVK | VGRGGGIFDY | 0.63 1.00 0.27 | 0 of 9 |
| 44 | GFCFDDYAMH | GISWNSGSIGYADRVK | VGRGGGYFDA | 1.89 1.83 1.83 | 2 of 9 (4.69) |
| 45 | GFTFDDYAMH | GISWTSGSIGYADSVK | VGRCGGYFHY | nd nd nd | 1 of 9 (4.29) |
| 46 | GFTFDDYAMH | GISWYSGSIGYADSVK | MGRGGGNFDY | nd nd nd | 1 of 9 (5.86) |
| 47 | GHTFDDSAMH | GISWNSGSIGYADSVK | CGRGGGYFDY | 4.10 5.37 nd | 7 of 9 (4.58) |
| 48 | GFTFDDYYMH | GISWNSGSIGYATSVK | VGRGGGYFDR | 5.59 4.45 5.85 | 4 of 9 (5.03) |
| 49 | GFTFDSYAMH | GISWNSGYIGLADSVK | VGRGGGYFDY | 5.48 nd nd | 0 of 9 |

Top 7 of the variants detected in all replicates, tightest first:

CDR-H1	CDR-H2	CDR-H3	log10 Kd (nM) by replicate	empty controls
GFTFDDYGMH	GISWNSGSIGYADSVK	VGRGGGIFDY	0.63 1.00 0.27	0 of 9
GFTFDDYAMH	GISWNSGSIGYADSVK	VGRGVGYFDY	1.13 1.11 0.72	4 of 9 (5.35)
GFMFDDFAMH	GISWNSASIGYADSVK	VGRGGGYFDY	1.92 1.85 1.21	5 of 9 (5.05)
GFCFDDYAMH	GISWNSGSIGYADRVK	VGRGGGYFDA	1.89 1.83 1.83	2 of 9 (4.69)
GFTFFDYAMH	GISWNSGSIGYADSFK	VGRGGGKFDY	2.34 3.31 2.66	1 of 9 (4.13)
GFTFDDYYMH	GISWNSGSIGYATSVK	VGRGGGYFDR	5.59 4.45 5.85	4 of 9 (5.03)
HFTFDDYAMH	GISWNSGSIGYADSVQ	VGRGGGCFDY	5.28 5.58 5.08	4 of 9 (5.19)